Laboratory results reported in patent US6800633B2, “Pyrrolo[2,3d]pyrimidine compositions and their use” (OSI Pharmaceuticals, Inc., priority 1998, dated 2004).
Read-outs that look alike come from different tables or passages of the source.

Sequences of proteins named here, by UniProt entry; tags and fusion partners are left off. A change or cut given only in a name is not applied to a line headed by its entry.
UniProt P0DMS8, whole entry: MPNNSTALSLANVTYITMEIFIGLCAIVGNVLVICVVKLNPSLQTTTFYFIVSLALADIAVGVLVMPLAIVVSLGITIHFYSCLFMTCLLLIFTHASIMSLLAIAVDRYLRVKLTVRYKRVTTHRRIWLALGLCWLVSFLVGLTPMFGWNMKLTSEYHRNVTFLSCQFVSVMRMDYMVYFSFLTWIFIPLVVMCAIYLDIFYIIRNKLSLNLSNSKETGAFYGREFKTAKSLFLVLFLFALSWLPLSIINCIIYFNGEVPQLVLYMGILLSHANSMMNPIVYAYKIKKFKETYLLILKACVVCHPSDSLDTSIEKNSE
UniProt P30542, whole entry: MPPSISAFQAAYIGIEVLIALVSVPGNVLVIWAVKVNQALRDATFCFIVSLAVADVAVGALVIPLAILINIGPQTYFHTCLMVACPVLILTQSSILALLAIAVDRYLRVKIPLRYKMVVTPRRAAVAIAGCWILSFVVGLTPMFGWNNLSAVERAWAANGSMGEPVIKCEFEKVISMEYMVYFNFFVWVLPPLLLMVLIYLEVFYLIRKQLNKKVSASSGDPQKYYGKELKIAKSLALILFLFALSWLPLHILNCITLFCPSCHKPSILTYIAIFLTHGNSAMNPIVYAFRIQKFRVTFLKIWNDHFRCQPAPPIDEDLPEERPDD

Tests used:
human A3 receptor = human A3 receptor (Homo sapiens, UniProt P0DMS8); experiment: Displacement binding of [3H]CPX, yeast membranes expressing hA3R; settings: read-out: IC50 [nM] hA3R, 0.4 nM [3H]CPX
human adenosine A1 (A1R) = human adenosine A1 (A1R) (Homo sapiens, UniProt P30542); experiment: Yeast β-Galactosidase reporter gene assay for human adenosine A1 receptor (strain CY12660)
[1] = molecular target: human A1 receptor subtype (Homo sapiens, UniProt P30542); experiment: biochemical
[2] = molecular target: human A3 receptor subtype (Homo sapiens, UniProt P0DMS8); experiment: Adenosine 3 receptor competition radioligand binding, [125I]AB-MECA, HEK293 membranes

SMILES | Ki [1] | further results
CC(Cc1ccccc1)Nc1ncnc2c1ncn2[C@@H]1O[C@H](CO)[C@@H](O)[C@H]1O (single isomer, unassigned; (-)) |  | IC50 (human A3 receptor): 23.6 nM
Cc1[nH]c2nc(-c3ccccc3)nc(NC3CC[C@@H](O)[C@@H](O)C3)c2c1C (some centres unmarked) [CDS-069533] |  | IC50 (human adenosine A1 (A1R); read-out: A1 Yeast IC50, inhibition of NECA-induced β-Galactosidase activity, yeast strain CY12660): > 10 µM
Cc1[nH]c2nc(-c3cccs3)nc(NC3CCC(O)CC3)c2c1C (stereo not drawn) [CDS-090890, 4-(4-trans-hydroxycyclohexyl)amino-5,6-dimethyl-2-(2-thienyl)-7H-pyrrolo[2,3d]pyrimidin-4-amine] | 0.0466 µM | 
Cc1[nH]c2nc(-c3ccccc3)nc(NCC(C)NC(=O)OC(C)(C)C)c2c1C (centres unmarked) [CDS-090906] | 0.105 µM | IC50 (human adenosine A1 (A1R)): 0.472 µM
Cc1[nH]c2nc(-c3ccccc3)nc(NC3CCC(NC(=O)CCN)CC3)c2c1C (centres unmarked) [CDS-121272] |  | Ki [2]: 0.369 µM
CC(=O)NCCNc1nc(-c2ccccc2)nc2[nH]c(Cn3ccccc3=O)cc12 [CDS-143988, 4-(2-acetylaminoethyl)amino-6-(N-pyridin-2-one)methyl-2-phenyl-7H-pyrrolo[2,3d]pyrimidine] | 0.06 µM | 
CC(=O)NCCNc1nc(-c2ccccc2)nc2[nH]c(COc3ccc(F)cc3)cc12 [CDS-143995, 4-(2-acetylaminoethyl)amino-6-(4-fluorophenoxy)methyl-2-phenyl-7H-pyrrolo[2,3d]pyrimidine] | 0.033 µM | 
